# Measurements from article PMC9379584 (iScience, 2022).
# Sequences of proteins named here, by UniProt entry; tags and fusion partners are left off.
# UniProt P08913, whole entry: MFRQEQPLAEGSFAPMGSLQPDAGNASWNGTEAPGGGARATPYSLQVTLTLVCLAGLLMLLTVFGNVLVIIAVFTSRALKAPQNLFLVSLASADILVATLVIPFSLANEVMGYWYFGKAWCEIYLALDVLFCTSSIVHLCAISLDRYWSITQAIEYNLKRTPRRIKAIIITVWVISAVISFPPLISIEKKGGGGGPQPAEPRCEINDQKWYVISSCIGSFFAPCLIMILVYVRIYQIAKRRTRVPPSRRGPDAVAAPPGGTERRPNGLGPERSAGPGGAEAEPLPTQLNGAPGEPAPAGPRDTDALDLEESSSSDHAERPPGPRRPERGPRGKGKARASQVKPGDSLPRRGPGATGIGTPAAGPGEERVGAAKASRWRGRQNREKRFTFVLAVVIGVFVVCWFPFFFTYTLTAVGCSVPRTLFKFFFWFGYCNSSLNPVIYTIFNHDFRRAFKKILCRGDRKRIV
# Molecular target: human α2A-AR (Homo sapiens, UniProt P08913)
# Test: Radioligand competition binding, [3H]-RX821002, HEK-293 membranes
smiles,measurement,value
CC(C)C[C@H]1C(=O)N2CCC[C@H]2[C@]2(O)O[C@](NC(=O)[C@@H]3C=C4c5cccc6[nH]c(Br)c(c56)C[C@H]4N(C)C3)(C(C)C)C(=O)N12 [Bromocriptine],Ki,199 nM
